Experiments:
human KOR [1] = target: T1, human KOR (Homo sapiens, UniProt P41145); assay: [35S]-GTPγS binding stimulation, KOR; format: biochemical; details: mean (SEM)
Experimental: (§1) Each novel compound was evaluated for binding to and stimulation of KOR, MOR, and DOR. Binding affinity (Ki) was determined by competitive displacement of [^3H]-diprenorphine, a non-selective opioid receptor antagonist with similar affinity for each of the three receptors. Potency (EC50) and efficacy, expressed as percent stimulation compared to a standard agonist at each receptor, were determined by a [^35S]-GTPγS binding assay.
(§2) Membranes prepared from transfected Chinese Hamster Ovary cells stably expressing human KOR, human MOR, or human DOR were used for all assays. […] Protein concentration was determined via Pierce BCA protein assay kit using bovine serum albumin as the standard.
(§3) Agonist stimulation of KOR, MOR, and DOR by all test compounds was determined by [^35S]-guanosine 5′-O-[γ-thio]triphosphate ([^35S]-GTPγS) binding assays as previously reported. […] Basal stimulation was determined by incubation in the absence of any ligand. […] The radioactivity remaining on the filters was then quantified by liquid scintillation counting after saturation with EcoLume liquid scintillation cocktail in a Perkin-Elmer Microbeta 2450. […] Percent stimulation and EC50 values were determined via nonlinear regression analysis using GraphPad Prism software from at least three separate assays performed in duplicate. Efficacy is expressed as percent stimulation relative to standard agonists.

By UniProt entry, the sequences of proteins in these tests, tags left out.
UniProt P35372, whole entry: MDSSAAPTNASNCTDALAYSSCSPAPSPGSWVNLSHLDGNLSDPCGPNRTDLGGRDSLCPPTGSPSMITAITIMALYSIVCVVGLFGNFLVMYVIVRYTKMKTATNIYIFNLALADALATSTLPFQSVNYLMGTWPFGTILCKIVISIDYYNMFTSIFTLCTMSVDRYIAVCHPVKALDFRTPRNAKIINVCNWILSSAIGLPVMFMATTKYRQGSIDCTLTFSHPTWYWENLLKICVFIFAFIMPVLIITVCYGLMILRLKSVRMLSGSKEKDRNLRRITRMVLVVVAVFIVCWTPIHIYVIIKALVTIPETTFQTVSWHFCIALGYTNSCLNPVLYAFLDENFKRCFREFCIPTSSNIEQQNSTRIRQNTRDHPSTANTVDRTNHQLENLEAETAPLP
UniProt P41143, whole entry: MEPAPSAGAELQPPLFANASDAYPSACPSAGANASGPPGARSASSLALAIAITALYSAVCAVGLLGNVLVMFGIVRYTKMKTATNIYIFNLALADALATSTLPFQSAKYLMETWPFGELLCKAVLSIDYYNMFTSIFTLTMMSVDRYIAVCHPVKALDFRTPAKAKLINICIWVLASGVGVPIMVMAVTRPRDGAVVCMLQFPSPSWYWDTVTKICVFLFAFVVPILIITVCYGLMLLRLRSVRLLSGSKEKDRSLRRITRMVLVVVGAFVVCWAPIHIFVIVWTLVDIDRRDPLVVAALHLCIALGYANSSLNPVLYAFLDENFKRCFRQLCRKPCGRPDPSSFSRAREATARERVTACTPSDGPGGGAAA

human MOR [2] = target: T2, human MOR (Homo sapiens, UniProt P35372); assay: [3H]-diprenorphine competitive displacement binding, MOR; details: read-out: Ki MOR; membranes from CHO cells expressing human MOR; mean (SEM), n>=3 in duplicate
Experimental: as §1
as §2, with “assays. Cells were grown to confluence at 37 °C in 5% CO2 in 1:1 DMEM:F12 media with 10% v/v fetal bovine serum and 5% v/v penicillin/streptomycin.” for “assays.”
(§4) Binding affinities for all test compounds at KOR, MOR, and DOR were determined by competitive displacement of [^3H]-diprenorphine as previously reported. […] Nonspecific binding was determined using the opioid antagonist naloxone (10 µM), and total binding was determined using vehicle in the absence of competitive ligand. […] The radioactivity remaining on the filters was then quantified by liquid scintillation counting after saturation with EcoLume liquid scintillation cocktail in a Microbeta 2450 (Perkin-Elmer, Waltham, MA, USA). […]

human DOR [3] = target: T3, human DOR (Homo sapiens, UniProt P41143); assay: [3H]-diprenorphine competitive displacement binding, DOR; details: read-out: Ki DOR; membranes from CHO cells expressing human DOR; mean (SEM), n>=3 in duplicate
Experimental: as §1
as §2, with “assays. Cells were grown to confluence at 37 °C in 5% CO2 in 1:1 DMEM:F12 media with 10% v/v fetal bovine serum and 5% v/v penicillin/streptomycin.” for “assays.”
as §4

human MOR [4] = target: T2, human MOR; assay: [35S]-GTPγS binding stimulation, MOR; format: biochemical; details: mean (SEM), * n = 2
Experimental: as §1, §2, §3

human KOR [5] = target: T1, human KOR; assay: [3H]-diprenorphine competitive displacement binding, KOR; details: read-out: Ki KOR; membranes from CHO cells expressing human KOR; mean (SEM), n>=3 in duplicate
Experimental: as §1
as §2, with “assays. Cells were grown to confluence at 37 °C in 5% CO2 in 1:1 DMEM:F12 media with 10% v/v fetal bovine serum and 5% v/v penicillin/streptomycin.” for “assays.”
as §4

human DOR [6] = target: T3, human DOR; assay: [35S]-GTPγS binding stimulation, DOR; format: biochemical; details: mean (SEM), * n = 2
Experimental: as §1, §2, §3

Cc1cc(O)cc(C)c1C[C@H](N)C(=O)N1CCc2ccc(Cc3ccccc3)cc2C1
EC50 (human KOR [1]; read-out: EC50 KOR, CHO-human KOR membranes, * n = 2, dns = does not stimulate, average maximal stimulation <10% at up to 10 µM): 97 nM | % Stimulation KOR (human KOR [1]; versus 10 µM standard agonist U69,593, dns = average maximal stimulation <10% at up to 10 µM): 82 (6) % | Ki (human MOR [2]): 5.3 nM | Ki (human DOR [3]): 2.2 nM | EC50 (human MOR [4]; read-out: EC50 MOR, CHO-human MOR membranes, dns = does not stimulate, average maximal stimulation <10% at up to 10 µM): 68 nM | % Stimulation MOR (human MOR [4]; versus 10 µM standard agonist DAMGO, dns = average maximal stimulation <10% at up to 10 µM): 39 (4) % | Ki (human KOR [5]): 2.3 nM | EC50 (human DOR [6]; read-out: EC50 DOR, CHO-human DOR membranes, dns = does not stimulate, average maximal stimulation <10% at up to 10 µM): 5.7 nM | % Stimulation DOR (human DOR [6]; versus 10 µM standard agonist DPDPE, dns = average maximal stimulation <10% at up to 10 µM): 20 (3) %

Reference: publication PMC6930500, “Structure–Activity Relationships of 7-Substituted Dimethyltyrosine-Tetrahydroisoquinoline Opioid Peptidomimetics” (Molecules, 2019)
